Reference: PMC8949525, “Essential Elements and Isoflavonoids in the Prevention of Prostate Cancer” (Nutrients, 2022)
Where two headings read alike, the source gives them in different places.

Assays:
[1] = system: S. typhimurium TA1535/pSK1002
Method: (§1) The umu-test detects the induction of bacterial DNA-damage response, the SOS system, in the strain S. typhimurium TA1535/pSK1002. The test strain carries pSK1002 plasmid, which contains the fusion of umuC, encoding one of SOS response proteins, and lacZ genes. The expression of β-galactosidase protein is fully controlled by umuC gene.
(§2) In the present study, the umu-test was performed in the micro-plate format according to the ISO guideline. The β-galactosidase activity was determined by the degree of ONPG cleavage measured as sample absorbance at 420 nm. The extent of SOS system activation was presented as induction ratio (IR), calculated as the ratio of β-galactosidase activity in the presence of the tested compound(s) to that of negative control. […] The optical density at 600 nm was used to describe the bacteria growth. […] Both measurements were performed with Asys UVM340 Hightech microplate spectrophotometer.
The S9 fraction from rat liver was used for metabolic activation of the tested compounds and the model mutagen. […] The P450 cytochrome level in the isolate was evaluated and the aliquots were stored at −80 °C. The S9 reaction mix was prepared as described by Maron and Ames.
(§3) In order to the establish anti-genotoxic potential of tested compounds, their effects on the action of two model genotoxic agents, 4NQO without the metabolic activation with rat liver S9 fraction and 2AA with metabolic activation, were evaluated. […] Subsequently, the modulation of 4NQO and 2AA genotoxicity by the isoflavones, the elements and their mixtures in previously used concentrations was investigated.

[2] = system: S. typhimurium TA1535/pSK1002; conditions: −S9, genistein 10 μM and/or mineral added (Table 2), NQO line = genotoxin alone
Method: as §1, §2, §3

[3] = 2AA 5 mg/L, +S9, genistein 10 μM and/or mineral added (Table 5), 2AA line = genotoxin alone
[4] = +S9, isoflavone 10 μM, minerals Zn 0.5, Se 0.03, Cu 0.5, Fe 1.5, Ca 40 μg/mL
[5] = −S9, isoflavone 10 μM, minerals Zn 0.5, Se 0.03, Cu 0.5, Fe 1.5, Ca 40 μg/mL
[6] = 2AA 1 mg/L, +S9, genistein 10 μM and/or mineral added (Table 5), 2AA line = genotoxin alone

Structure (SMILES) | G (growth ratio) [1, 3] | G (growth ratio) [1, 4] | G (growth ratio) [1, 5] | G (growth ratio) ([2]; 4NQO […]) | G (growth ratio) ([2]; 4NQO 0.05 mg/L) | G (growth ratio) [1, 6]
O=S(=O)([O-])[O-].[Cu+2] [Cu, copper(II)/cupric sulphate] | 1.16 ± 0.14 | 1.07 ± 0.11 | 1.09 ± 0.12 | – | – | –
O=S(=O)([O-])[O-].[Fe+2] [Fe, iron(II) sulphate] | 1.07 ± 0.07 | – | – | 1.08 ± 0.10 | – | –
O=S(=O)([O-])[O-].[Zn+2] [Zn, Zinc sulphate] | 1.08 ± 0.05 | 1.04 ± 0.05 | 1.09 ± 0.13 | 1.01 ± 0.11 | 1.01 ± 0.11 | 1.03 ± 0.08
O=c1c(-c2ccc(O)cc2)coc2cc(O)cc(O)c12 [gen, genistein] | – | 1.16 ± 0.17 | – | – | 1.01 ± 0.12 | 1.16 ± 0.17
